This is an account of results in ChEMBL document CHEMBL5154779, “Exploration of novel phthalazinone derivatives as potential efflux transporter inhibitors for reversing multidrug resistance and improving the oral absorption of paclitaxel” (Eur J Med Chem, 2022).

What all share (assay type): cell-based
Holding throughout (details): Canis lupus familiaris

The test system of assay [1] is MDCK-II-BCRP. In words: Reversal of BCRP-mediated multidrug resistance in dog MDCK-II-BCRP cells assessed as fold reduction in mitoxantrone IC50 at 0.15 uM measured after 48 hrs by MTT assay relative to mitoxantrone IC50 alone. In general terms: Tetrazolium dyes change colour on reduction, which living cells bring about.
The subject of assay [2] is MDCK-II-BCRP. The experiment in a line: Reversal of BCRP-mediated multidrug resistance in dog MDCK-II-BCRP cells assessed as fold reduction in mitoxantrone IC50 at 0.01 uM measured after 48 hrs by MTT assay relative to mitoxantrone IC50 alone.
Assay [3] concerns MDCK-II-BCRP. In words: Reversal of BCRP-mediated multidrug resistance in dog MDCK-II-BCRP cells assessed as fold reduction in mitoxantrone IC50 at 20 uM measured after 48 hrs by MTT assay relative to mitoxantrone IC50 alone.
Assay [4] relates to MDCK-II-BCRP. The experiment in a line: Reversal of BCRP-mediated multidrug resistance in dog MDCK-II-BCRP cells assessed as fold reduction in mitoxantrone IC50 at 0.05 uM measured after 48 hrs by MTT assay relative to mitoxantrone IC50 alone.
The subject of assay [5] is MDCK-II-BCRP. In words: Reversal of BCRP-mediated multidrug resistance in dog MDCK-II-BCRP cells assessed as fold reduction in mitoxantrone IC50 at 0.2 uM measured after 48 hrs by MTT assay relative to mitoxantrone IC50 alone.
The test system of assay [6] is MDCK-II-BCRP. In words: Reversal of BCRP-mediated multidrug resistance in dog MDCK-II-BCRP cells assessed as fold reduction in mitoxantrone IC50 at 1.25 uM measured after 48 hrs by MTT assay relative to mitoxantrone IC50 alone.
For assay [7], the system named is MDCK-II-BCRP. In words: Reversal of BCRP-mediated multidrug resistance in dog MDCK-II-BCRP cells assessed as fold reduction in mitoxantrone IC50 at 0.4 uM measured after 48 hrs by MTT assay relative to mitoxantrone IC50 alone.
The subject of assay [8] is MDCK-II-BCRP. In words: Reversal of BCRP-mediated multidrug resistance in dog MDCK-II-BCRP cells assessed as fold reduction in mitoxantrone IC50 at 0.1 uM measured after 48 hrs by MTT assay relative to mitoxantrone IC50 alone.

On to `O=C(Nc1ccc(CCN2CCOCC2)cc1)c1nn(-c2ccc(Cl)cc2)c(=O)c2ccccc12`, for which the Ratio IC50 in the assay on MDCK-II-BCRP [1] is 9.58; in the assay on MDCK-II-BCRP [2], 1.13; in the assay on MDCK-II-BCRP [3] it was 46.3; in the assay on MDCK-II-BCRP [4], 136; in the assay on MDCK-II-BCRP [5], 12; with MDCK-II-BCRP [6] it was 15.1. Besides, the values for the Ratio IC50 in the assay on MDCK-II-BCRP [7] and with MDCK-II-BCRP [8] were 15.7 and 2.8, respectively.
